Source: US8420820B2, “Pyrrolopyridinylpyrimidin-2-ylamine derivatives” (Merck Patent GmbH, priority 2008, dated 2013)

Sequences of proteins named here, by UniProt entry; tags and fusion partners are left off. Residues count along the entry.
UniProt O15530, 51-556 limits assumed: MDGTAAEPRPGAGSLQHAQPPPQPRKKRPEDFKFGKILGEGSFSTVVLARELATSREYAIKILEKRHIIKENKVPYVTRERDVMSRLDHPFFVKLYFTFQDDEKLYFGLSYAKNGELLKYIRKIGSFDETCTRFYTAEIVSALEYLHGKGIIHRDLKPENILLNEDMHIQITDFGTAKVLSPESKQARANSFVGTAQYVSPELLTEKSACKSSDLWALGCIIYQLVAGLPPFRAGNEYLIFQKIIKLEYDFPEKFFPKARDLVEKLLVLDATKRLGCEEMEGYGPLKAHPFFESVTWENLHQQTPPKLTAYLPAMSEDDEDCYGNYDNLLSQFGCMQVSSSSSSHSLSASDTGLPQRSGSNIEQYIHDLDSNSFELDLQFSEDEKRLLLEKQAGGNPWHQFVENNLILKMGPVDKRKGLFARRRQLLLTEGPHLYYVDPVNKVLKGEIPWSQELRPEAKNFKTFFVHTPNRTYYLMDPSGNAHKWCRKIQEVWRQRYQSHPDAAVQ

Assays:
PDK1 = PDK1 (Homo sapiens, UniProt O15530); assay: Test for the inhibition of PDK1 (flashplate, 33P-ATP); assay type: biochemical; conditions: read-out: IC50 PDK1, His6-PDK1 3.4 nM, 4 μM ATP, 30° C., 60 min
Description: The experimental batches are carried out in a flashplate system with 384 wells/microtitration plate.
In each case, the PDK1 sample His6-PDK1(SEQ ID NO: 2)(1-50)(3.4 nM), the PDK1 substrate biotin-bA-bA-[…] (SEQ ID NO: 3) (400 nM), 4 μM ATP (with 0.2 μCi of ^33P-ATP/well) and the test substance in 50 μl of conventional experimental solution per well are incubated at 30° C. for 60 min. The test substances are employed in corresponding concentrations (if desired in a dilution series). The control is carried out without test substance. The reaction is stopped using standard methods and washed. The activity of the kinase is measured via the incorporated radioactivity in top count. In order to determine the non-specific kinase reaction (blank value), the experimental batches are carried out in the presence of 100 nM staurosporin.
The radioactivity (decompositions per minute) of the blank value (no use of test substance in the presence of staurosporin) is subtracted from all other radioactivity values. The controls (kinase activity without test substance) are set equal to 100 percent and all other radioactivity values (after subtracting the blank value) are expressed set in relation thereto (for example in % of the control).
IC50 values (50% inhibition) are determined with the aid of statistics programmes, such as, for example, RS1.

[1] = tested on: PDK1 kinase activity in PC3 cells (phospho-T308-PKB); assay: Cellular testing of PDK1 kinase inhibitors in PC3 cells (Luminex, phospho-T308-PKB); conditions: read-out: IC50 [PC3 P-PKB Thr308], 30 min with test substance, serum-free, phospho-T308-PKB by Luminex

## CCCCc1cc(-c2c[nH]c3ncc(-c4cnn(CC(=O)N5CCCC5)c4)cc23)nc(N)n1
PDK1
  IC50: 0.01 to 1 µM
[1]
  IC50: 1 to 10 µM
